Tests used:
[1] = test system: ApoE deficient mice; assay: Atherosclerosis of the aortic arch in ApoE deficient mice on normal chow diet (Example 9); details: for atherosclerosis: ApoE deficient mice
[2] = test system: ApoE -/- mice; assay: Atherosclerosis in ApoE -/- mice on high fat diet: en-face Sudan IV, Paigen method, trichrome (Example 13); details: 1mg/kg IV once a week for 4 weeks, versus control
[3] = test system: ApoE -/- mice; assay: Glucose tolerance testing (GTT) in ApoE -/- mice on 60% high fat diet (Example 15); details: versus control
[4] = test system: GLUT4; assay: Western analysis of GLUT4 in adipose and muscle tissue (Example 15); details: treated versus untreated mice
[5] = test system: Th40 cells; assay: Cytokine production of splenic lymphocytes treated in vitro, flow cytometry (Example 16); details: 24 hours in vitro, varying concentrations, Brefeldin A for 4 hours
[6] = lethargy, rash, fatigue, anemia, hyperglycemia, hypocalcemia, coagulapathies, neutropenia, renal and hepatic complications; cited from earlier work
[7] = test system: NOD mice; assay: Prevention of diabetes in NOD mice by CD154 peptides (Example 1); details: 25 ug (1mg/kg) weekly into the tail vein from 6 weeks of age, diabetes = blood glucose greater than 250 mg/dL for three consecutive days
[8] = test system: CD4+ and CD8+ cells; assay: CD4/CD8 ratio in blood of treated NOD mice by flow cytometry (Example 1)
[9] = test system: NOD mice; assay: Reversal of hyperglycemia in newly diabetic NOD mice (Example 2); details: already diabetic NOD mice, 100 ug intravenously then weekly injections for ten weeks
[10] = test system: blood cells; assay: Binding of biotin-conjugated 15-mer peptide to whole blood cells, HRP-avidin, absorbance at 405 nm (Example 4); details: patients having type-I diabetes versus non-diabetic controls
[11] = test system: NOD mice; assay: Reversal of hyperglycemia and insulin granulation of the pancreas in diabetic NOD mice (Example 5); details: six weeks after reversal of hyperglycemia, aldehyde/fuschsin stain, versus irrelevant peptide
[12] = test system: ApoE-/- mice; assay: Existing plaque in ApoE-/- mice treated from 20 weeks of age (Example 10); details: versus control
[13] = test system: whole human blood; assay: Clot study in whole human blood (Example 11); details: dosing levels similar to the murine studies
[14] = 1mg/kg IV once a week for 4 weeks from 20 weeks of age
[15] = 1mg/kg IV once a week for 4 weeks

Molecule: C[C@H](N)C(=O)N[C@@H](CCCCN)C(=O)N[C@@H](CCCCN)C(=O)NCC(=O)N[C@@H](Cc1ccc(O)cc1)C(=O)N[C@@H](Cc1ccc(O)cc1)C(=O)O
- atherosclerosis [1]: abrogates atherosclerosis
- lesion areas, en-face Sudan IV stain ([2]; high fat diet for 16 weeks): significant reduction in lesion areas
- plaque volume (area under the curve), Paigen method ([2]; high fat diet): reduction in plaque volume
- glucose tolerance ([3]; 1mg/kg (weekly via I.V. injection), 6 hours fasting, 1g/kg glucose intraperitoneal): significantly increased
- insulin sensitivity ([3]; 1mg/kg, GTT): significantly improved
- plasma insulin levels ([3]; 1mg/kg, GTT): lowered
- expression of the GLUT4 protein in muscle tissue [4]: increased expression
- expression of the glucose transport protein (GLUT4) in white adipose tissue [4]: increase in expression
- inflammatory cytokine production of IL2, INFγ, and IL17a [5]: affects the inflammatory cytokine production

Molecule: Cc1ccc(C(=O)Nc2ccc(S(=O)(=O)O)c3cc(S(=O)(=O)O)cc(S(=O)(=O)O)c23)cc1NC(=O)c1cccc(NC(=O)Nc2cccc(C(=O)Nc3cc(C(=O)Nc4ccc(S(=O)(=O)O)c5cc(S(=O)(=O)O)cc(S(=O)(=O)O)c45)ccc3C)c2)c1
- toxicities [6]: numerous reversible toxicities

Molecule: VLQWAKKGYYTMK
- development of diabetes [7]: had significant effects on the development of diabetes

Molecule: VLQWAKKGYYTMKSN
- development of diabetes [7]: prevented the onset of diabetes
- compromise of the immune system, as determined by the CD4/CD8 ratio [8]: did not result in compromise of the immune system
- hyperglycemia [9]: can reverse hyperglycemia
- 15-mer peptide binding activity of blood cells [10]: higher 15-mer peptide binding activity than cells from non-diabetic controls
- insulin granules of the pancreas [11]: preserved insulin granules in the majority of the mice
- total area of the 2.5 mm segment of the lesser curvature of the aortic arch ([1]; 1mg/kg IV three times a week from 9 weeks of age, versus control): substantially reduced
- atherosclerosis [1]: abrogates atherosclerosis
- total number of plaque ([1]; within the 2.5mm segment, 1mg/kg IV three times a week, versus control): significantly decreased
- number of advanced plaques [12, 14]: reduced
- number of individual early plaques [12, 14]: reduced
- average cap width (cap size) [12, 15]: greater
- average core width (core size/plaque size) [12, 15]: decreased
- clotting of whole human blood [13]: does not modify or change the clotting of whole human blood significantly outside of normally recognized levels

From patent EP4825391A1, “THERAPEUTIC PEPTIDES AND METHODS FOR TREATING AUTOIMMUNE RELATED DISEASE” (dated 2026)
